The conditions of this series: in words.

Consider “didecyldimethylammonium N-[4-[[(2-amino-1,4-dihydro-4-oxo-6-pteridinyl)methyl]amino]benzoyl]-L-glutamate”, for which the “Solubility / miscibility in water” value was “lacks miscibility with water and hexane”; the “Solubility in organic solvents / other media” value is “soluble in chloroform, acetone, DMSO”.
